The results in this text go back to US20080206834A1, “RECOMBINANT ORGANOPHOSPHOROUS ACID ANHYDRASE AND METHODS OF USE” (published 2008).

One data set has as its target recombinant OPA enzyme (Brevundimonas diminuta, UniProt P0A434). Briefly: Kinetic constants for the hydrolysis of organophosphorus insecticides (substrate specificity). Particulars: for Km: pH 9, 100 mM CHES buffer, 10% methanol; for (V/K)ref / Vref: pH 9, 100 mM CHES, paraoxon = 100.
For a further data set, the system named is Drosophila melanogaster. The data set is described as follows: Fly bioassay: pesticide-impregnated filters with or without crude enzyme. The settings on record: overnight.
The subject of a further data set is fall army worms. The data set is described as follows: Mortality versus amount of paraoxon applied to caterpillars.

For orientation: Km means the substrate concentration at which the rate is half of its maximum. Consider `CCOP(=S)(OCC)Oc1nc(Cl)c(Cl)cc1Cl`, for which, on recombinant OPA enzyme, the Michaelis constant (Km) worked out at 110 µM, the “(V/K)ref” value amounted to 0.07 and the Vref is given as 0.08.
The like results for `CP(C)(=S)Oc1ccc([N+](=O)[O-])cc1` were, in that order, 840 µM, 0.26 and 2.4.
The like results for “O,O-dimethyl-p-cyanophenyl phosphorothioate” were, in that order, 2100 µM, 0.32 and 7.5.
For `CNC(=O)Oc1cccc2c1OC(C)(C)C2`, the Percent survival in the data set on Drosophila melanogaster (pesticide 1.0 μg, crude enzyme 0 mg) was determined as 100%; with Drosophila melanogaster (pesticide 1.0 μg, crude enzyme 0.87 mg), 100%; in the data set with Drosophila melanogaster (pesticide 7.6 μg, crude enzyme 0 mg), 20%; in the data set with Drosophila melanogaster (pesticide 7.6 μg, crude enzyme 0.87 mg), 10%; in the data set on Drosophila melanogaster (pesticide 11.5 μg, crude enzyme 0 mg), 0%; in the data set on Drosophila melanogaster (pesticide 11.5 μg, crude enzyme 0.87 mg) it was 0%. Also, the Percent survival in the data set on Drosophila melanogaster (pesticide 22.9 μg, crude enzyme 0 mg) is given as 0%; in the data set with Drosophila melanogaster (pesticide 22.9 μg, crude enzyme 0.87 mg) it was 0%.
For “O,O-diethyl-O-[2-isopropyl-4-methyl-6-pyrimidyl] phosphorothioate”, the Percent survival with Drosophila melanogaster (pesticide 11.0 μg, crude enzyme 0 mg) is reported as 0%; in the data set on Drosophila melanogaster (pesticide 11.0 μg, crude enzyme 0.87 mg), 100%; in the data set with Drosophila melanogaster (pesticide 22.0 μg, crude enzyme 0 mg), 0%; with Drosophila melanogaster (pesticide 22.0 μg, crude enzyme 0.87 mg), 100%. The Km at recombinant OPA enzyme was determined as 450 µM. In addition, at recombinant OPA enzyme, the “(V/K)ref” value came to 1.68. The Vref at recombinant OPA enzyme was found to be 8.4.
`CCOP(=S)(OCC)Oc1ccc([N+](=O)[O-])cc1`: the Percent survival entry is listed as “no fly survived” in the data set with Drosophila melanogaster (pesticide 1.2 μg, crude enzyme 0 mg); 0% in the data set with Drosophila melanogaster (pesticide 1.2 μg, crude enzyme 0 mg, listed as Parathion); 100% with Drosophila melanogaster (pesticide 1.2 μg, crude enzyme 0.87 mg); 0% with Drosophila melanogaster (pesticide 12.4 μg, crude enzyme 0 mg); 100% in the data set with Drosophila melanogaster (pesticide 12.4 μg, crude enzyme 0.87 mg); 0% in the data set on Drosophila melanogaster (pesticide 41.1 μg, crude enzyme 0 mg). Moreover, the Percent survival was 100% with Drosophila melanogaster (pesticide 41.1 μg, crude enzyme 0.87 mg); 0% in the data set on Drosophila melanogaster (pesticide 82.6 μg, crude enzyme 0 mg); 50% with Drosophila melanogaster (pesticide 82.6 μg, crude enzyme 0.87 mg); 100% in the data set with Drosophila melanogaster (pesticide 82.6 μg, crude enzyme 1.74 mg); 0% in the data set on Drosophila melanogaster (pesticide 124 μg, crude enzyme 0.87 mg). Also, the Km on recombinant OPA enzyme was 240 µM. The “(V/K)ref” value at recombinant OPA enzyme is 11.25. The Vref on recombinant OPA enzyme is recorded as 30.
Turning to `CCOP(=O)(OCC)Oc1ccc([N+](=O)[O-])cc1`, the “(V/K)ref” value on recombinant OPA enzyme turned out to be 100. The Vref on recombinant OPA enzyme turned out to be 100. Also, the LD50 worked out at 9 µg in the data set on fall army worms (control group (mixture of uninfected and pAC311 infected caterpillars)); 1 µg in the data set on fall army worms (moth stage); 2000 μ in the data set with fall army worms (pV941-29 infected caterpillars). In addition, in the data set on fall army worms (infected versus control caterpillars, due to presence of the opd gene), the “factor of increase of the lethal dose” value is “at least 220”.
As to `COP(=S)(OC)Oc1ccc(SC)c(C)c1`, the Percent survival in the data set with Drosophila melanogaster (pesticide 1.5 μg, crude enzyme 0 mg) was 0%; in the data set on Drosophila melanogaster (pesticide 1.5 μg, crude enzyme 0.87 mg), 0%; in the data set with Drosophila melanogaster (pesticide 7.7 μg, crude enzyme 0 mg), 0%; with Drosophila melanogaster (pesticide 7.7 μg, crude enzyme 0.87 mg) it was 0%; in the data set on Drosophila melanogaster (pesticide 46.0 μg, crude enzyme 0 mg), 0%; with Drosophila melanogaster (pesticide 46.0 μg, crude enzyme 0.87 mg), 0%.
With “O,O-diethyl-O-[3-chloro-4-methyl-2-oxo-2H-lbenzopyran-7-yl]phosphorothioate”, at recombinant OPA enzyme, the Km came out at 390 µM, the “(V/K)ref” value worked out at 6.70 and the Vref amounted to 29.
The matching figures for “O,O-diethyl [p-(methylsulfinyl) phenyl] phosphorothioate”: 460 µM, 0.63 and 3.2.
Turning to `CNC(=O)O/N=C/C(C)(C)SC`, the Percent survival is reported as 0% in the data set with Drosophila melanogaster (pesticide 9.5 μg, crude enzyme 0 mg) and 0% in the data set with Drosophila melanogaster (pesticide 9.5 μg, crude enzyme 0.87 mg).
